Data on five compounds can be found in patent US4767764A, “Alkoxyalkyl and alkylmercaptoalkyl substituted bridged benzofuroisoquinolines having opioid antagonist and/or appetite-controlling properties” (E. I. Du Pont de Nemours and Company, priority 1986, dated 1988).

Amino acid sequences for entries named in this document (tags omitted).
UniProt P33534, whole entry: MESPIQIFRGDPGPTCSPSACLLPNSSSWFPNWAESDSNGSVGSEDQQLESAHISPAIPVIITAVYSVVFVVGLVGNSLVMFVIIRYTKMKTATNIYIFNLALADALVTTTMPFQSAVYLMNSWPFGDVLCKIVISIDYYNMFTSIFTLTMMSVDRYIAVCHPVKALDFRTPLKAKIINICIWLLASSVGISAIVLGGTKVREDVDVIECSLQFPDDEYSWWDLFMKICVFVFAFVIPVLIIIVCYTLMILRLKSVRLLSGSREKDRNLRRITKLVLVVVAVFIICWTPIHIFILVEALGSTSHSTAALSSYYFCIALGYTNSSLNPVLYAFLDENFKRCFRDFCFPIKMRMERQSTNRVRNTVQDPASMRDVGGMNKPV
UniProt P42866, whole entry: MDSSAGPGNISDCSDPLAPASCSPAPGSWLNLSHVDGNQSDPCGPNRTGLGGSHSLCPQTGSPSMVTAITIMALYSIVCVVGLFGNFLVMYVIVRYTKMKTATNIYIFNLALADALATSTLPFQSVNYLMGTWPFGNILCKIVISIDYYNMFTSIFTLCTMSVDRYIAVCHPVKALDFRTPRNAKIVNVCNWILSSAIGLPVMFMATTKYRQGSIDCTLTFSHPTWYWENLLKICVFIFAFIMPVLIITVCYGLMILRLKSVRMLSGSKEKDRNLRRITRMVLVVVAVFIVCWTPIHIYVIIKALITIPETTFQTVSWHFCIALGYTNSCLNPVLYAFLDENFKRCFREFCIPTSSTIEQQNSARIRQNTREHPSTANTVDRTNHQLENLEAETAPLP

For experiment [1], the target named is kappa opioid receptor (U-50,488H analgesia) (Mus musculus, UniProt P33534). Kind of experiment: antagonism of U-50,488H analgesia in PQW test (kappa antagonist potency). The experiment is classed as in vivo, mouse (male CF1). As to conditions: ratio of ED50 morphine / ED50 U-50,488H antagonism.
The target in the next experiment is mu receptor (Mus musculus, UniProt P42866). Particulars: in vivo, sc.

Each structure is given as a SMILES string.

As for `CCCN1CCC23c4cccc(O)c4OC2C2CCC3(C1)C(COC)C2` (stereo not shown) [Example 1, 5-Methoxymethyl-3-n-propyl-1,2,3,4,5,6,7,7a-octahydro-4a,7-ethanobenzofuro[3,2-e]isoquinolin-9-ol], in experiment [1], the “kappa selectivity (morphine/U-50,488H antagonism)” value (“kappa selectivity” below) stood at 3.5 X. For the same compound, the ED50 at mu receptor stood at 0.01 mg/kg.
For `CCCOCC1CC2C=CC13CN(CCC)CCC31c3cccc(O)c3OC21` (stereo not shown) [Example 4, 5-(n-propoxymethyl)-3-n-propyl-1,2,3,4,5,6,7,7a-octahydro-4a,7-ethenobenzofuro[3,2-e]isoquinolin-9-ol] the same measures were 3.8 X and 0.15 mg/kg.
As for `CCCN1CCC23c4cccc(O)c4OC2C2CCC3(C1)C(CSC)C2` (stereo not shown) [Example 5, 5-methylthiomethyl-3-n-propyl-1,2,3,4,5,6,7,7a-octahydro-4a,7-ethanobenzofuro[3,2-e]isoquinolin-9-ol], the “kappa selectivity” value in experiment [1] is recorded as 1.6 X. For the same compound, the ED50 on mu receptor is 0.04 mg/kg.
Turning to `CCCN1CCC23c4cccc(O)c4OC2C2CCC3(C1)C(COCC)C2` (stereo not shown) [Example 2, 5-Ethoxymethyl-3-n-propyl-1,2,3,4,5,6,7,7a-octahydro-4a,7-ethanobenzofuro[3,2-e]isoquinolin-9-ol], the “kappa selectivity” value in experiment [1] is listed as 2.0 X. On mu receptor, this compound registered an ED50 of 0.02 mg/kg.
For `CCCOCC1CC2CCC13CN(CCC)CCC31c3cccc(O)c3OC21` (stereo not shown) [Example 3, 5-(n-Propoxymethyl)-3-n-propyl-1,2,3,4,5,6,7,7a-octahydro-4a,7-ethanobenzofuro[3,2-e]isoquinolin-9-ol] the same measures were 2.4 X and 0.06 mg/kg.
